The results in this text go back to PubChem BioAssay AID504466 (National Center for Advancing Translational Sciences (NCATS), 2011).

The list shows a part of the results, in another mix than the full data. Some tests of the compounds listed are not included; inactive here does not mean inactive elsewhere. Inconclusive results are not listed. Active and inactive are the calls of the source. Calls come from the whole dose curve; as a rule, active = well fitted activation curve with a large enough effect; inconclusive = small, poorly fitted or top-dose-only effect; inactive = no such curve, though single readings can be large or run the other way.

The assay is described as follows: qHTS screen for small molecules that induce genotoxicity in human embryonic kidney (HEK293T) cells expressing luciferase-tagged ELG1. Note: % of control where 0% means no effect; nearly all actives have a fitted effect of over 60% in size. As to conditions: HEK293T ELG1-luciferase reporter, luminescence, 16 h; at 46 µM (top of the series). From the text:
NIH Molecular Libraries Probe Production Network [MLPCN] NIH Chemical Genomics Center [NCGC] MLPCN Grant: 1 R03 MH092164-01 Assay Provider: Kyungjae Myung, NHGRI, NIH Keywords: MLPCN, qHTS, NCGC, genotoxicity, cancer Assay Overview: Cancer cells divide rapidly compared to normal cells in the body. During cell division, cancer cells need to duplicate their genome by DNA replication. The failure of genome duplication leads to cancer cells' death. Therefore, inhibitors of DNA replication could specifically kill cancer cells. Based on this concept, many chemotherapeutic agents were developed and have been used to treat cancer patients. However, there are a limited number of agents available in the clinical setting, and some of those that do exist have low efficacy and severe side effects. Therefore, if we can find the compounds that effectively block DNA replication either by directly damaging DNA or by inhibiting other cellular mechanisms, the options for cancer treatment will be broadened. With this in mind, we developed a quantitative high-throughput ELG1-luciferase reporter gene assay. Since the level of human ELG1 protein is enhanced in response to genetic stresses, increases in luciferase activity can be used to identify compounds that cause genetic stress.
Assay Protocol Summary: For genotoxicity screening, 2,000 cells in 5 uL/well were dispensed into white, solid-bottom 1536-well plates using a solenoid-based dispenser. Following transfer of 23 nL compound or DMSO vehicle by a pin tool, the plates were incubated 16 hr at 37 °C and 5% CO2. 5 ul ONE-Glo (Promega) was then added to each plate and following a 30 min incubation at room temperature, luciferase activity was quantified on a ViewLux CCD-based plate reader.
Background: qHTS replaces the single test concentration by a dilution series.
In the case of `O=C(OC1CN2CCC1CC2)C(CO)(c1ccccc1)c1ccccc1` (centres undefined), the activity change, positive = activation is inactive: 1.53%. The figure for `CC(C)Oc1ccc(C(=O)NCC2(N(C)C)CCCCC2)cc1` is inactive: -1.18%; for `CN(C)c1cccc(C(=O)NCC2(N(C)C)CCCCC2)c1` it is inactive: 1.8%; for `COc1ccc(Br)c(C(=O)NCC2(N3CCCCC3)CCCCC2)c1` it is inactive: -4.04%. As for `COc1cc(C(=O)NCC2(N(C)C)CCCCC2)c([N+](=O)[O-])cc1OC`, the activity change, positive = activation was inactive: -2.07%. As to `CN(C)C1(CNC(=O)c2ccc(Br)cc2)CCCCC1`, the activity change, positive = activation was inactive: -0.571%.

Turning to `O=C(NCC1(N2CCCCC2)CCCCC1)c1cccc(Cl)c1`, the activity change, positive = activation was inactive: 2.98%. Turning to `COc1cccc(C(=O)NCC2(N3CCCCC3)CCCCC2)c1`, the activity change, positive = activation was inactive: -0.156%. Then `COc1ccc(Cl)cc1C(=O)NCC1(N(C)C)CCCCC1`, with inactive: -1.47%; and `Cc1ccccc1C(=O)NCC1(N2CCCCC2)CCCCC1`, with inactive: 0.19%; and `CN(C)C1CCCC1OC(=O)C(O)(c1ccccc1)c1ccccc1` (centres undefined), with inactive: -1.4%. With `CN(C)c1ccc(C(=O)NCC2(N(C)C)CCCCC2)cc1`, the activity change, positive = activation is inactive: 6.43%.

For the compound `COc1ccc(C(=O)NCC2(N(C)C)CCCCC2)cc1`, the activity change, positive = activation is inactive: 2.43%. In the case of `Cc1cc(C(=O)NCC2(N3CCCCC3)CCCCC2)ccc1[N+](=O)[O-]`, the activity change, positive = activation is inactive: -2.82%. The figure for `CCN1CCCC(OC(=O)C2(O)c3ccccc3C=Cc3ccccc32)C1` (centres undefined) is inactive: -7.8%; for `O=C(NCC1(N2CCCCC2)CCCCC1)c1cccc(Br)c1` it is inactive: -2.48%; for `C=CCN1CCN(CCOC(=O)C(O)(c2ccccc2)c2ccccc2)CC1` it is inactive: -4.84%. For the compound `O=C(NCC1(N2CCCCC2)CCCCC1)c1cc(F)c(F)cc1Cl`, the activity change, positive = activation was inactive: 4.65%.

Turning to `CN1[C@@H]2CC[C@H]1CC(OC(=O)C(O)(c1ccccc1)c1ccccc1)C2` (some centres undefined), the activity change, positive = activation was inactive: -0.295%. Turning to `O=C(NCC1(N2CCCCC2)CCCCC1)c1cc([N+](=O)[O-])ccc1Cl`, the activity change, positive = activation is inactive: -3.86%. `Cc1ccc(C(=O)NCC2(N3CCCCC3)CCCCC2)cc1`: the activity change, positive = activation was inactive: 0.295%. The figure for `CCN(CC)CC(C)C(C)OC(=O)C(O)(c1ccccc1)c1ccccc1` (centres undefined) is inactive: -3.1%; for `COc1cc(SC)ccc1C(=O)NCC1(N(C)C)CCCCC1` it is inactive: -0.244%.

On to `CC(C)N1C(=O)CC2(CCN(CCOC(=O)C(O)(c3ccccc3)c3ccccc3)CC2)C1=O`, for which the activity change, positive = activation was inactive: -3.69%.
